# Patent publication US20250195530A1, “POLQ INHIBITORS” (ASTRAZENECA AB, priority 2022, published 2025)
# What was measured:
# [1] = system: DLD-1 BRCA2−/− cells; assay: Homologous recombination synthetic lethal inhibition of proliferation, DLD-1 BRCA2-/- (Cell Titre Glo 3D); type: cell-based
# Source text: (§1) This assay identifies anti-proliferative effects of POLQ compounds in the homologous recombination deficient colorectal cell line DLD-1 BRCA2−/− over 8-9 population doublings (7 days for DLD-1 and 12 days for DLD-1 BRCA2−/−). DLD1 BRCA2 wt are used as a control to detect cell toxic effects not specific to homologous recombination deficiency.
# (§2) DLD-1 BRCA2−/− and DLD-1 cells were kept in continuous culture in Assay Medium (RPMI 1640 phenol red free (Sigma R7509) containing 1% GlutaMAX (Gibco 35050) and 10% Foetal Bovine Serum (Gibco 10270-106)). On the day of the assay cells in culture of ˜80-90% confluent were used. […] Cells were counted using a ViCell and the cell images were monitored for clumps of cells, ideally they should be single or <3 cell clusters. The cells were diluted to 3,000 cells/mL of DLD-1 BRCA2−/− and 1,500 cells/mL of DLD-1 in Assay Medium and 100 μL added per well of transparent bottomed, black, tissue culture-treated 96-well plates (CoStar, No. 3904) Assay Ready Plates. The Assay Ready Plates contain a 10 point 10 μM to 0.51 nM dose range with three-fold dilutions in DMSO with a final volume of 100 nL. […] On day 6, 100 μL/well of Assay Medium was added to duplicate Assay Ready Plates. 90 μL of culture medium was removed from the cell plates and replenished with the Assay Media and compounds from the duplicate Assay Ready Plates using the Bravo. […]
# [2] = system: DLD-1 cells; assay: Inhibition of proliferation, DLD-1 BRCA2 wt control (Cell Titre Glo 3D); type: cell-based
# Source text: as §1, §2
smiles,measurement,setting,value
CC1(Oc2ncnc3c2nc(-c2ccc(OCCN4CCNCC4)cc2Cl)n3Cc2nncs2)CC1,POLQ PD Prolif Lumin BRCA2 −/− mean pIC50,[1],<5.0
same,POLQ PD Prolif Lumin DLD1 mean PIC50,[2],<5.0
